# The list shows a part of the results, in another mix than the full data. Some structures show a salt or complex split into parts, the way the source records it. Calls of active or inactive are those of the source.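 How the source made its calls: active means compounds whose cAMP rise, as percent of the full-agonist control response, exceeds 60; inactive means the rest.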
# By UniProt entry, the sequences of proteins in these tests, tags left out.
# UniProt P43116, whole entry: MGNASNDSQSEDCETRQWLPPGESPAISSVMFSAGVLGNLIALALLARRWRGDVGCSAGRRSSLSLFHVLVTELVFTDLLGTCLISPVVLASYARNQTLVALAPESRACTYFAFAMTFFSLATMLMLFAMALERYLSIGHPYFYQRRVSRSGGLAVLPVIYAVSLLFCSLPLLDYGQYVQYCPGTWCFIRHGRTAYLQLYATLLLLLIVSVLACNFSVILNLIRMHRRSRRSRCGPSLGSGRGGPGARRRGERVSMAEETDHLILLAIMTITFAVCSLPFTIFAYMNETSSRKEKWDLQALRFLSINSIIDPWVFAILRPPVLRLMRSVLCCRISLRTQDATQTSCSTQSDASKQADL
# Target: Prostaglandin E2 receptor EP2 subtype (Homo sapiens) (UniProt P43116)
# Assay: modulation of human EP2 prostaglandin signaling – cell-based, HTRF cAMP, PGE2 stimulation, primary screen (AID 940);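 further: rat C6 glioma line stably carrying human EP2 under a CMV promoter; the protocol text gives 20 µM as final concentration; 100% = response of wells given 1 µM PGE2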
# Settings: EP2-expressing cells, cAMP HTRF FRET, PGE2 co-stimulation; at 25 µM; stronger effect = higher value
row,SMILES,induction
1,Cc1cc(-c2cccc3ccccc23)c(C)cn1.O=[N+]([O-])c1cc([N+](=O)[O-])c(O)c([N+](=O)[O-])c1,active: 85.5%
2,CCOP(C)(=S)SCC(=O)NC(C)(CC)C(=O)O (stereo not given),inactive: 5.7%
3,CP(=O)(Nc1ccc(SC(F)(F)F)cc1)Oc1ccc(F)cc1 (stereo not given),inactive: -37.1%
4,Cc1ccccc1NP(C)(=O)Nc1ccccc1C,inactive: -2.44%
5,NNC(NN)NN.n1nc(-c2nn[nH]n2)n[nH]1,inactive: 3.44%
6,CP(=O)(Nc1ccc2c(c1)OCCO2)Oc1ccccc1 (stereo not given),inactive: -3.54%
7,CP(=O)(Nc1ccccc1F)Oc1ccccc1 (stereo not given),inactive: 19.6%
8,CC(C)c1ccc(OP(C)(=O)Nc2ccc(SC(F)(F)F)cc2)cc1 (stereo not given),inactive: -48%
9,CN1CC[C@@H](OC(=O)[C@](O)(c2ccccc2)C2CCCC2)C1,inactive: 31.7%
10,COc1ccc2c(c1O)-c1c(O)c(OC)cc3c1[C@H](C2)[N+](C)(C)CC3.O=[N+]([O-])c1cc([N+](=O)[O-])c([O-])c([N+](=O)[O-])c1[O-],inactive: 19.9%
11,O=C(OC1CN2CCC1CC2)c1ccc([N+](=O)[O-])cc1 (stereo not given),inactive: -2.19%
12,O=C(OCCN1CCN(CCOCc2ccccc2)CC1)C(O)(c1ccccc1)c1ccccc1,inactive: -0.86%
13,CCOC(=O)c1ccc(NP(C)(=O)Oc2ccc(F)cc2)cc1 (stereo not given),inactive: -56.9%
14,COc1ccc(OP(C)(=O)Nc2ccc(SC(F)(F)F)cc2)cc1 (stereo not given),inactive: -76%
15,CP(=O)(Nc1ccccc1)Oc1ccc(F)cc1 (stereo not given),inactive: 16.8%
16,CCCCCOc1ccc(NP(C)(=O)Oc2ccc(Cl)cc2Cl)cc1 (stereo not given),inactive: -12%
17,CCN(CC)CCCOC(=O)C(O)(c1ccccc1)C1CCCCC1 (stereo not given),inactive: -1.37%
18,COc1ccccc1OP(C)(=O)Nc1ccc(C)c(C)c1 (stereo not given),inactive: 0.05%
19,COc1ccc(OP(C)(=O)Nc2ccccc2Br)cc1 (stereo not given),inactive: -14.2%
20,Cc1cc(C)cc(OP(C)(=O)Nc2cccc(C(F)(F)F)c2)c1 (stereo not given),inactive: 50.4%
21,CP(=O)(OCCOc1ccccc1)OCCOc1ccccc1,inactive: -21.7%
22,CP(=O)(Nc1ccc(Cl)cc1Cl)Oc1ccccc1 (stereo not given),inactive: -13.6%
23,[Au].[Au].c1ccc([PH+](c2ccccc2)c2ccccc2)cc1.c1ccc([PH+](c2ccccc2)c2ccccc2)cc1.n1n[n-]c(-c2nnn[n-]2)n1,inactive: -15.6%

row,SMILES,induction
1,Cc1nc2ccc3ccccc3c2o1.O=[N+]([O-])c1cc([N+](=O)[O-])c(O)c([N+](=O)[O-])c1,inactive: -19.8%
2,COc1ccc(OP(C)(=O)Nc2ccccn2)cc1 (stereo not given),inactive: 4.49%
3,CN(C)CCOC(=O)C(O)(c1ccccc1)C1CCCC1 (stereo not given),inactive: -14.9%
4,COc1ccccc1OP(C)(=O)Nc1ccc(Br)cc1 (stereo not given),inactive: -1.47%
5,CP(=O)(Nc1ccccn1)Oc1ccccc1 (stereo not given),inactive: -15.8%
6,COc1ccccc1OP(C)(=O)Nc1ccc(C)cc1C (stereo not given),inactive: 36.9%
7,CCc1ccc(OP(C)(=O)O)cc1,inactive: -4.23%
8,O=[N+]([O-])c1cc([N+](=O)[O-])c(Nc2ccccn2)c([N+](=O)[O-])c1,inactive: -8.35%
9,Cc1c(NP(C)(=O)Oc2ccc(C(C)C)cc2)c(=O)n(-c2ccccc2)n1C (stereo not given),inactive: 25.6%
10,OCCSCCO,inactive: -1.99%
11,O=C(OCCCN1CCCC1)C(O)(c1ccccc1)C1CCCCC1 (stereo not given),inactive: -33.1%
12,CP(=O)(Oc1ccccc1)N1CCOC1=O (stereo not given),inactive: -21%
13,CCc1ccc(OP(C)(=O)Nc2cccnc2)cc1 (stereo not given),inactive: 16.7%
14,CCN(CC)CC(O)COC(=O)C(O)(c1ccccc1)C1CCCCC1 (stereo not given),inactive: -6.39%
15,COc1ccc(OP(C)(=O)Nc2ccc(Br)cc2)cc1 (stereo not given),inactive: -50.3%
16,N#[O+].[C-]#N.[C-]#N.[C-]#N.[C-]#N.[C-]#N.[Fe+2].[Na+].[Na+],inactive: 16.6%
17,CN(C)C(=O)c1c([N+](=O)[O-])cc([N+](=O)[O-])cc1[N+](=O)[O-],inactive: -4.41%
18,CC(C)(C)c1ccc(OP(C)(=O)O)cc1,inactive: 4.29%
19,COc1ccccc1OP(C)(=O)Nc1ccccc1Br (stereo not given),inactive: 14.3%
20,CP(=O)(Nc1ccc(Cl)cc1)Oc1ccc(F)cc1 (stereo not given),inactive: -3.91%
21,CCOC(=O)c1ccc(NP(C)(=O)Oc2ccc(Cl)cc2)cc1 (stereo not given),inactive: -81.9%
22,CP(=O)(OC12CC3CC(CC(C3)C1)C2)OC12CC3CC(CC(C3)C1)C2,inactive: 20.3%
